Biological target: GSK3β (Homo sapiens, UniProt P49841)
Test: GSK3β biochemical in vitro assay (coupled pyruvate kinase/lactate dehydrogenase, NADH fluorescence)
Details: 5 nM GSK3β, 50 μM ATP, 40 μM GSM substrate, 30° C., 2 hours
Experimental: The inhibitory activity of active substances is determined in a biochemical assay. The ingredients required for this purpose are mixed in a black 384-well microtitre plate with transparent base (from Greiner, catalogue number 781092). […]
The reaction is incubated at 30° C. for 2 hours and then the resulting fluorescence is measured in a Tecan Safire-XFLUOR4 instrument, version V4.50 (serial number 12901300283) with the specifications: measurement mode—fluorescence measured from below, excitation wavelength 340 nm, emission wavelength 465 nm, slit width excitation 5 nm, slit width emission 5 nm, gain mode 120, delay 0 μs, number of light flashes per measurement 3, and an integration time of 40 μs.
The activity of the active substances is calculated in relation to these 0% and 100%.

Chains of the proteins cited; added tags and fusions are not shown.
UniProt P49841, whole entry: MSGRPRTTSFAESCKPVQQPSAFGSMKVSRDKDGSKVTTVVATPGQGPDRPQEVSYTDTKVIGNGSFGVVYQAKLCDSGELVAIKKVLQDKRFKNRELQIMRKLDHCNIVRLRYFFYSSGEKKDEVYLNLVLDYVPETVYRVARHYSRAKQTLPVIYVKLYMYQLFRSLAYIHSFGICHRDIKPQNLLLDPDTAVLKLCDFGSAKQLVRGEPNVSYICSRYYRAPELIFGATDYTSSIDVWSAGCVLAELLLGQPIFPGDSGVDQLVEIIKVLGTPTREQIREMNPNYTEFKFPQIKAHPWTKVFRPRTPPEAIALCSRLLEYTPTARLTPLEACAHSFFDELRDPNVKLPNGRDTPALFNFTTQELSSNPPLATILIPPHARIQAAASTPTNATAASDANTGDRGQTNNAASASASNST

IC50	Structure (SMILES)
1.3 nM	Nc1nc(NC2CCCN(c3nc(-c4ccc(Cl)cc4Cl)nn4cnnc34)C2)ccc1C(=O)C(F)(F)F (centres unmarked)
4.3 nM	Nc1nc(NC2CCCN(c3nc(-c4ccc(Cl)cc4Cl)nn4cnnc34)C2)ccc1[N+](=O)[O-] (centres unmarked)
